Measurements from ChEMBL document CHEMBL5375987, “Structural Fusion of Natural and Synthetic Ligand Features Boosts RXR Agonist Potency” (J Med Chem, 2023).

Legend:
[1] = biological target: T1, Nuclear receptor subfamily 2 group C member 2 (Homo sapiens) (UniProt P49116); assay: Antagonist activity at NR2C2 (unknown origin) at 1 uM
T1 sequence (whole entry): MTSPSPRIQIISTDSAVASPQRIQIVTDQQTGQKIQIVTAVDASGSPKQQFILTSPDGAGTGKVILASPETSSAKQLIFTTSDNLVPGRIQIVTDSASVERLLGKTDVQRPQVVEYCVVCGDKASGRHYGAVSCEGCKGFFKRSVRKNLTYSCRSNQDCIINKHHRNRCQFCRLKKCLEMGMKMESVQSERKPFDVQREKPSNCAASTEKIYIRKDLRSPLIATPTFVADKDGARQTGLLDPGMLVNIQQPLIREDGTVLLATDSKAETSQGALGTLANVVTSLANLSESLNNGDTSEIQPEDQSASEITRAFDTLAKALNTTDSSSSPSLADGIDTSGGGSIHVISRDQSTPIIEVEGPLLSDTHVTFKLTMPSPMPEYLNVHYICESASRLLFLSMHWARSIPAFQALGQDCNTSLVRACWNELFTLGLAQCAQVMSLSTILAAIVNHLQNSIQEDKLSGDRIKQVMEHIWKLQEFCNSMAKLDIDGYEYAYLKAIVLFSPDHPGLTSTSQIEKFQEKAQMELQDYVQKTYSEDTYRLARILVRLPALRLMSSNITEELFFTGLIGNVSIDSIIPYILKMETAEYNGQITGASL

[2] = biological target: T2, Bile acid receptor (Homo sapiens) (UniProt Q96RI1); assay: Inverse agonist activity at NR1H4 (unknown origin) at 1 uM
T2 sequence (whole entry): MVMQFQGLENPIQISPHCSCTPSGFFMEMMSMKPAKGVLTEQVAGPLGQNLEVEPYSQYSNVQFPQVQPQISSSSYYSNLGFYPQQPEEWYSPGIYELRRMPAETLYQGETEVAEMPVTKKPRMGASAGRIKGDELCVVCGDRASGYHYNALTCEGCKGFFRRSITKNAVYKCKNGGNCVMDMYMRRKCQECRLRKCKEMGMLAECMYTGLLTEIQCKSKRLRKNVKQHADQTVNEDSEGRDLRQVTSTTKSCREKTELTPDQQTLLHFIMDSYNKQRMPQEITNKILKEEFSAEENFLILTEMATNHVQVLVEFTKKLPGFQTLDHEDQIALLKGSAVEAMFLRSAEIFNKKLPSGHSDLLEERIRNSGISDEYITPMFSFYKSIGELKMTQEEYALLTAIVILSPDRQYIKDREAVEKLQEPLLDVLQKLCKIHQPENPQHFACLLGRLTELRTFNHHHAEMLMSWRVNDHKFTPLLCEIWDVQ

[3] = biological target: T3, Thyroid hormone receptor beta (Homo sapiens) (UniProt P10828); assay: Antagonist activity at NR1A2 (unknown origin) at 1 uM
T3 sequence (whole entry): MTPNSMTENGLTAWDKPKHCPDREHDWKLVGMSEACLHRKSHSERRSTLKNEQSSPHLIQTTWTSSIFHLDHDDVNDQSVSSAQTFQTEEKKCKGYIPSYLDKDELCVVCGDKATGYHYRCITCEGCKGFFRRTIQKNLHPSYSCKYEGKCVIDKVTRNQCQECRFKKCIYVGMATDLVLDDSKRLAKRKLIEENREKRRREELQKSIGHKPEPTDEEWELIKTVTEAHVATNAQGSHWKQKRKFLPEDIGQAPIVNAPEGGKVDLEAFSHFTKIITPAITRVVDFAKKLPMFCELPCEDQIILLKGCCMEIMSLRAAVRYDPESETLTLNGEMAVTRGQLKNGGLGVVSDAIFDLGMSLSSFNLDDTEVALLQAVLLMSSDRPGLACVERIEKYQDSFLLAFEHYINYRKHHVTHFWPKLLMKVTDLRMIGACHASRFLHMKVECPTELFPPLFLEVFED

[4] = biological target: T4, Nuclear receptor subfamily 1 group D member 1 (Homo sapiens) (UniProt P20393); assay: Antagonist activity at NR1D1 (unknown origin) at 1 uM
T4 sequence (whole entry): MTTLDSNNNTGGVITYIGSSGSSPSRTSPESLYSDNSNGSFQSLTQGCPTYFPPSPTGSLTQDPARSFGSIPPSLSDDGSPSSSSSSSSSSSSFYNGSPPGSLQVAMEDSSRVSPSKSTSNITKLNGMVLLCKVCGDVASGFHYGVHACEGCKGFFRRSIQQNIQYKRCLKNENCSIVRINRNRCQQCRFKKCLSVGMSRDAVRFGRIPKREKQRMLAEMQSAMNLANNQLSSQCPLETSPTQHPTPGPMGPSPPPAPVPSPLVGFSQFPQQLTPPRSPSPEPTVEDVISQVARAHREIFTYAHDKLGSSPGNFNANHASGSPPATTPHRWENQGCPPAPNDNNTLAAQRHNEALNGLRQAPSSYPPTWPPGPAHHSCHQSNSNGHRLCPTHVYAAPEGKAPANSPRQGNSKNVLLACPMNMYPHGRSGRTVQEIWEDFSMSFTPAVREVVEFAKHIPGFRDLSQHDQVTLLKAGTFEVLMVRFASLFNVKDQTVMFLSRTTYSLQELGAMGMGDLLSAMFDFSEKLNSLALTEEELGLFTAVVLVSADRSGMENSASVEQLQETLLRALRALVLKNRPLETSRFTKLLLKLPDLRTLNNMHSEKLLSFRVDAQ

[5] = biological target: T5, Nuclear receptor subfamily 1 group D member 2 (Homo sapiens) (UniProt Q14995); assay: Inverse agonist activity at NR1D2 (unknown origin) at 1 uM
T5 sequence (whole entry): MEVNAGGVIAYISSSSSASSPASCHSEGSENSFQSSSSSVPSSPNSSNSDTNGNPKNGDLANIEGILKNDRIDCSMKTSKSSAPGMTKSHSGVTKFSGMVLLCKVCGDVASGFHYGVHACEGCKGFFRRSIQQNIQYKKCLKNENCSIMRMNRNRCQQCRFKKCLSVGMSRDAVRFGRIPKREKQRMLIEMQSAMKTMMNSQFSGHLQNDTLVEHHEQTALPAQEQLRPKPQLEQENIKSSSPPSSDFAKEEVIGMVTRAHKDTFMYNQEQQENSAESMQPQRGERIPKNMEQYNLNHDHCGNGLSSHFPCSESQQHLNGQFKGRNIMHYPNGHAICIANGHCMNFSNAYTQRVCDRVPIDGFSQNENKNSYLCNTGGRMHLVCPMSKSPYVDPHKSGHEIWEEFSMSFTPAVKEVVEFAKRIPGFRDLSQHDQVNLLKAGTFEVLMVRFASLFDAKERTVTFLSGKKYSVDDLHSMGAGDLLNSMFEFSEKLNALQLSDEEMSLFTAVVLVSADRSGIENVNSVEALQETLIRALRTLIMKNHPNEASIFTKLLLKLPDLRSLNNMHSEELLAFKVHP

Measured: Activity

O=C(O)[C@@H]1C[C@H]1c1nc(-c2ccccc2)c(-c2cc(C(F)(F)F)cc(C(F)(F)F)c2)o1 (racemic)
inactive: all assays above

Active and inactive are the calls of the source.
